Earlier results as cited in patent US10961240B2, “Formulations of a compound modulating kinases” (Plexxikon Inc., priority 2017, dated 2021).

Test system: diffuse-type giant cell tumor
Conditions: patients

In the case of “RG7155: CSF1R inhibitor RG7155; cited paper title names an anti-CSF-1R antibody”, the clinical response is given as “clinical objective responses”.
